Yeast mating assay 2: variants of the scFv Ab-95

Reference: Engelhart et al. 2022, doi:10.1038/s41597-022-01779-4. File: FLAb, binding data.

Binding partner: SARS-CoV-2 spike HR2 peptide, sequence PDVDLGDISGINAS.

The variants keep the heavy chain, the linker and the frameworks of Ab-95 (scFv order VH, a (GGGGS)3 linker, VL).
VH: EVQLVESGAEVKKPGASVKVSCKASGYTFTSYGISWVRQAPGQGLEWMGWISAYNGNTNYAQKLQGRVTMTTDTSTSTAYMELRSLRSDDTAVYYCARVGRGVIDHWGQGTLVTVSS
VL: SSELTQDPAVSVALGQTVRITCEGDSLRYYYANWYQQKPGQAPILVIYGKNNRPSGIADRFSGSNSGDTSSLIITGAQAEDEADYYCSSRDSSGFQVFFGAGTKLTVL

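The parent was found by panning a naive human phage display library on the peptide. In library AAYL52, one, two or three CDR residues were substituted; doubles and triples were drawn at random. AlphaSeq pools MATa yeast showing the antibodies with MATalpha yeast showing the peptide. Mating (16 h, 30 °C) was followed by selection of diploids and sequencing of their barcodes. Scores were corrected for input abundance and mapped to Kd with protein pairs of known affinity run in the same pool. Mating was done three times.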

Substitutions are numbered in sequence along the VL above, starting at 1 (not Kabat).
Numbers give log10(Kd / nM), so 0 is 1 nM and 3 is 1 µM. Smaller is tighter.
A mean of the replicates is given; it leaves out those without a signal.
"nd" means that the variant was in the library but no mating with the target was seen in any replicate; the authors take this as a sign of poor binding, and no number exists.
Three control strains display no target. For library AAYL52, 28% of the pairings with them gave a signal, with a median of 3.91 and one signal in twenty below 2.90, so weak values seen in few replicates may be background. The control count says in how many pairings with the empty strains this scFv gave a signal.
Parent in this assay: reference entry 2.31, copy in this library 2.25.

For R53Y+P54M+V97F, the assay gave nd (0 of 3 replicates; controls 0 of 9).
For N33S+N51Q, the assay gave 2.57 (3 of 3 replicates; controls 2 of 9).
For E23T+N52Q+D91R, the assay gave nd (0 of 3 replicates; controls 1 of 9).
For G24E+D25E+S92P, the assay gave nd (0 of 3 replicates; controls 4 of 9).
For Y31E+V97W, the assay gave 4.27 (1 of 3 replicates; controls 1 of 9).
For G24D+N33D, the assay gave 3.01 (2 of 3 replicates; controls 2 of 9).
For D25C+G49A+P54D, the assay gave nd (0 of 3 replicates; controls 1 of 9).
For Y29E+D91A, the assay gave 2.38 (3 of 3 replicates; controls 2 of 9).
For N33S+S93K, the assay gave nd (0 of 3 replicates; controls 5 of 9).
For Y29K+A32K+P54G, the assay gave 3.12 (2 of 3 replicates; controls 0 of 9).
For E23N+R28P+S89K, the assay gave 3.05 (3 of 3 replicates; controls 2 of 9).
For R53L+R90S+Q96V, the assay gave 3.21 (3 of 3 replicates; controls 1 of 9).
For S26R+Y29S+S92W, the assay gave 3.72 (2 of 3 replicates; controls 3 of 9).
For D25A+N52D+G94T, the assay gave 3.21 (3 of 3 replicates; controls 1 of 9).
For D25C+Y29C+S88T, the assay gave nd (0 of 3 replicates; controls 2 of 9).
For R53L+G94Y+F98R, the assay gave 5.09 (1 of 3 replicates; controls 2 of 9).
For S26P+R28S+Y29D, the assay gave 2.45 (3 of 3 replicates; controls 3 of 9).
For D25F+R28F+G94S, the assay gave 3.01 (3 of 3 replicates; controls 2 of 9).
For Y29R+R53W+V97G, the assay gave 4.55 (1 of 3 replicates; controls 1 of 9).
For D25F+G49C+S88H, the assay gave 4.02 (1 of 3 replicates; controls 5 of 9).
For G24W+P54C+Q96Y, the assay gave 4.06 (1 of 3 replicates; controls 1 of 9).
For S26I+P54E+S55N, the assay gave nd (0 of 3 replicates; controls 0 of 9).
For K50S+G94W+F98N, the assay gave 4.57 (1 of 3 replicates; controls 0 of 9).
For P54F+S93M, the assay gave 3.69 (2 of 3 replicates; controls 0 of 9).
For F95H+Q96C+F98H, the assay gave 3.05 (3 of 3 replicates; controls 3 of 9).
For L27C+Y31M+A32V, the assay gave 3.73 (2 of 3 replicates; controls 3 of 9).
For S26C+K50S+S55D, the assay gave 2.60 (3 of 3 replicates; controls 2 of 9).
For G24H+S55M+F98P, the assay gave 2.60 (3 of 3 replicates; controls 2 of 9).
For G49S+R53V+S88D, the assay gave nd (0 of 3 replicates; controls 2 of 9).
For E23W+L27K+S89N, the assay gave nd (0 of 3 replicates; controls 0 of 9).
For E23V+S26I+F98S, the assay gave 3.98 (2 of 3 replicates; controls 0 of 9).
For Y31P+A32F+G94Q, the assay gave 2.78 (3 of 3 replicates; controls 2 of 9).
For K50R+S55P+S92D, the assay gave 4.16 (2 of 3 replicates; controls 3 of 9).
For S93F+F95P+Q96N, the assay gave 3.19 (3 of 3 replicates; controls 5 of 9).
For E23G+S55C+G94S, the assay gave 4.15 (1 of 3 replicates; controls 2 of 9).
For D25C+A32V+K50D, the assay gave 2.01 (3 of 3 replicates; controls 3 of 9).
For S26T+L27Q+D91V, the assay gave 4.95 (1 of 3 replicates; controls 2 of 9).
For G24D+S92I+F98T, the assay gave 4.01 (3 of 3 replicates; controls 2 of 9).
For R90M+G94E+Q96K, the assay gave 4.58 (2 of 3 replicates; controls 0 of 9).
For L27T+K50F+S92Q, the assay gave 3.63 (3 of 3 replicates; controls 2 of 9).
For D25H+A32P+F95Y, the assay gave 1.27 (3 of 3 replicates; controls 2 of 9).
For E23H+D25F+Y30N, the assay gave 1.24 (3 of 3 replicates; controls 3 of 9).
For Y31S+R90G+Q96W, the assay gave 1.85 (3 of 3 replicates; controls 0 of 9).
For D25W+A32P+S93T, the assay gave 2.02 (3 of 3 replicates; controls 4 of 9).
For S26K+S93K+Q96N, the assay gave 3.62 (3 of 3 replicates; controls 2 of 9).
For A32E+R90G+F98A, the assay gave 4.19 (1 of 3 replicates; controls 1 of 9).
For S26V+Y30W+N51Q, the assay gave 3.65 (2 of 3 replicates; controls 3 of 9).
For L27F+D91G+F98K, the assay gave 3.94 (2 of 3 replicates; controls 3 of 9).
For N33F+G94T+Q96S, the assay gave 4.29 (3 of 3 replicates; controls 6 of 9).

8 of these entries, quoted again:

| changes | mean log10 Kd (nM) | detected | control signals |
|---|---|---|---|
| D25W+A32P+S93T | 2.02 | 3 of 3 | 4 of 9 |
| S26R+Y29S+S92W | 3.72 | 2 of 3 | 3 of 9 |
| S26P+R28S+Y29D | 2.45 | 3 of 3 | 3 of 9 |
| S26I+P54E+S55N | nd | 0 of 3 | 0 of 9 |
| S26C+K50S+S55D | 2.60 | 3 of 3 | 2 of 9 |
| S93F+F95P+Q96N | 3.19 | 3 of 3 | 5 of 9 |
| Y29K+A32K+P54G | 3.12 | 2 of 3 | 0 of 9 |
| E23G+S55C+G94S | 4.15 | 1 of 3 | 2 of 9 |